Reference: patent EP0310305B1 (priority 1987, dated 1989)

Tested on: healthy male volunteers
Experiment: Cathartic effect in human volunteers
Settings: oral, 20 µg in coconut oil (200 µl)

Structure (SMILES): CCCCC(F)C(=O)CC[C@H]1[C@H](O)CC(=O)[C@@H]1C/C=C\CCCC(=O)OC (some centres unmarked) [Test Drug 2, 13,14-dihydro-15-keto-16R,S-fluoro-prostaglandin]
- time of loose or explosive diarrhea after administration: 2 to 5 h
- men who complained of aerenterectasia and developed symptoms of loose or explosive diarrhea (5 men): 4 out of 5
